Laboratory results: publication PMC9166766 (Experimental & Molecular Medicine, 2022)

Columns and labels:
[1] = test system: calcineurin (CNA) phosphatase activity; test: Calcineurin cellular activity assay in Jurkat T cells; type: cell-based; conditions: HA-mCherry-tagged peptides, PMA and ionomycin
Experimental: (§1) We measured calcineurin phosphatase activity in vitro using a calcineurin phosphatase assay kit (BML-AK804, Enzo Life Sciences, Farmingdale, NY, USA). We incubated GST or GST-tagged peptides with CNA for 30 min at room temperature and then followed the manufacturer’s instructions. To measure endogenous calcineurin phosphatase activity, we transiently transfected Jurkat T cells with CAG-HA-mCherry-peptides by electroporation. After 24 h, we pretreated the Jurkat T cells with FK506 for 1 h before activating them with PMA and ionomycin. Next, we washed the cells with TBS buffer (20 mM Tris, pH 7.2, 150 mM NaCl), resuspended them with lysis buffer from the calcineurin cellular activity assay kit (BML-AK816, Enzo Life Sciences), and kept them on ice for 30 min. We collected the lysate supernatant and removed free phosphate by gel filtration using the Desalting Column Resin included in the kit. Next, we followed the manufacturer’s instructions.
(§2) Jurkat T cells expressing only HA-mCherry were used as a negative control, and cells treated with FK506 were used as a positive control. d In vitro calcineurin phosphatase activity assays using purified GST-tagged peptides. Purified GST was used as a negative control. […] Statistical differences were determined using one-way ANOVA. *p < 0.05, NS nonsignificant, NC negative control.

[2] = test system: microbiota-dependent colorectal cancer; conditions: ref [36]; cited from earlier work
Source text: To overcome these side effects, researchers have developed alternative inhibitors that specifically perturb the calcineurin-NFAT pathway.

[3] = test system: Jurkat T cells (T-cell activation gene mRNA); test: Real-time quantitative PCR of activated Jurkat T cells; type: cell-based; conditions: PMA and ionomycin, Supplementary Fig. 5a, b
Source text: We collected Jurkat T cells with QIAzol Lysis Reagent (Qiagen) to extract total RNA. We reverse transcribed cDNAs from isolated RNA using AMV Reverse Transcriptase and random hexamers. We performed real-time quantitative PCR for each cDNA using TB Green® Premix Ex Taq™ (TaKaRa, Kusatsu, Japan) on a CFX Connect Real-time PCR Detection System (Bio-Rad, Hercules, CA, USA) and normalized the expression to that of 18 S rRNA or GAPDH. Supplementary Table 1 describes the primers used.
Fig. 3 The CABIN1 peptide inhibits T-cell activation. a Heatmap of altered genes affected by FK506 treatment or CABIN1 peptide expression upon T-cell activation. b Gene Ontology analysis of cluster III. c mRNA expression levels of genes included in cluster III. d qRT-PCR data of genes in c. The experiment was independently repeated at least three times, and the data are presented as the mean ± standard deviation. Statistical differences were determined using two-tailed Student’s t-test. *p < 0.05, **p < 0.01, ***p < 0.001, NC negative control.

[4] = test system: JNK1; test: In vitro kinase assay, JNK1; type: biochemical; conditions: GST-tagged peptide, 1 h, 30 °C, 50 μM ATP
Experimental: (§3) We used the purified GST-tagged peptides for the in vitro kinase assays with activated recombinant kinases obtained from Proqinase GmbH (Freiburg, Germany). We performed the kinase assays in reaction buffer (50 mM HEPES-NaOH, pH 7.5, 3 mM MgCl2, 3 mM MnCl2, 3 μM sodium orthovanadate, 1 mM dithiothreitol, 50 μM unlabeled ATP, 5 μCi ^32P-γ-ATP) for 1 h at 30 °C. We stopped the reaction by adding 5× sample buffer and separated the proteins using SDS-PAGE. The gel was stained with Coomassie Brilliant Blue, dried, and developed on X-ray film.
(§4) The phosphorylated threonine of the immunoprecipitated peptide with HA antibody was detected with [PXpTP] antibody. b In vitro kinase assays using purified GST-tagged CABIN1 peptide and PKC downstream kinases. c In vitro kinase assays using purified GST-tagged peptides and kinases included in the MAPK family. d Immunoprecipitation assays using Flag-MAPKs and HA-CABIN1 in HEK293T cells. e, f In vitro kinase assays using p38α and substituted CABIN1 peptides. g Jurkat T cells expressing HA-mCherry-tagged CABIN1 peptide were treated with 10 μM p38α inhibitors for 16 h. Immunoprecipitation was performed with HA antibody and detected by western blotting. h Phosphorylated threonine and peptide-bound CNA of g were measured using ImageJ, and the ratio of phosphorylation and calcineurin binding to the CABIN1 peptide was calculated (n = 6). […]

[5] = Protein stability of HA-mCherry-VIVIT peptides in Jurkat T cells (western blot, FACS); type: cell-based; conditions: HA-mCherry-tagged
[6] = test system: CNAβ2 (calcineurin catalytic subunit); test: Mammalian two-hybrid assay (VP16 AD-CNAβ2 and GAL4 DBD-peptides, pG5-luc) in HEK293T cells; type: cell-based; conditions: with or without 1 μM ionomycin
Experimental: (§5) To measure the transcriptional activity of NFAT, we cotransfected Jurkat T cells with GST-tagged peptides and NFAT-luc by electroporation. After 24 h, we pretreated the cells with 0.5 μM FK506 for 1 h and then treated them with 40 nM PMA and 1 μM ionomycin for 8 h. For the mammalian two-hybrid assay, we cotransfected HEK293T cells with GAL4 DBD-tagged CABIN1, VIVIT, chimeric and substituted peptides, VP16 activation domain-tagged CNAβ2, and pG5-luc (luciferase reporter plasmid containing the GAL4-responsive promoter) for 24 h. We lysed the harvested cells with a luciferase assay lysis buffer (17 mM KH2PO4, 183 mM K2HPO4, pH 7.8, 0.2% [v/v] Triton X-100) and sonicated them briefly. We measured luciferase activity for each cell lysate using an Infinite M200 (Tecan, Männedorf, Switzerland). In addition, we confirmed the expression level of the transfected proteins by Western blotting.
Fig. 1 The short peptide from the CABIN1 C-terminus is essential for interaction with calcineurin. a Schematic diagram and sequence of CABIN1 fragments. b, c A mammalian two-hybrid assay was performed using VP16 AD-CNAβ2 and GAL4 DBD-CABIN1 peptides (b CABIN1-14, -15, -S ~ L; c CABIN1-L-1 ~ L-1-4) in HEK293T cells. d Sequences of CABIN1-L-1-2, the VIVIT 10-mer and the chimeric peptide (top). A mammalian two-hybrid assay using these peptides was performed (bottom). […]

[7] = test system: ERK2; test: In vitro kinase assay, ERK2; type: biochemical; conditions: GST-tagged peptide, 1 h, 30 °C, 50 μM ATP
Experimental: as §3, §4

[8] = test system: tNFATC2 nuclear import; test: Nuclear localization of EGFP-tNFATC2 by confocal microscopy in Jurkat T cells; type: cell-based; conditions: 40 nM PMA and 1 μM ionomycin 4 h, FK506 0.5 μM, n = 10-12
Experimental: We transfected Jurkat T cells with the pCAG-EGFP-tNFATC2-IRES-mCherry-peptide by electroporation. After two days, we pretreated these cells with 0.5 μM FK506 for 30 min. Then, we treated them with 40 nM PMA and 1 μM ionomycin under culture conditions for 4 h. Before imaging by a confocal laser scanning microscope (Nikon, Tokyo, Japan), we treated the cells with 10 μg/ml Hoechst 33342 (Invitrogen, Waltham, MA, USA) to stain nuclei. Colocalization analysis of mCherry and Hoechst was performed with ImageJ and its plugin JACoP to measure the Manders coefficient[23],[24].
Jurkat T cells expressing GST-tagged peptides were treated with PMA and ionomycin for activation. […] For dephosphorylation of NFATC2, Jurkat T cells were treated with PMA and ionomycin for 2 h. c Hyper- and hypophosphorylated NFATC2 of b was measured using ImageJ, and the hypo/hyper ratio was calculated (n = 7). d Snapshot images of the activated Jurkat T cells expressing the indicated peptides and tNFATC2 were obtained using confocal microscopy. […] Scale bar, 50 μm e Nuclear-localized tNFATC2 was measured by calculating the colocalization ratio between Hoechst (M1) and EGFP (M2). […] Statistical differences were determined using a two-tailed Student’s t-test (a, c) or one-way ANOVA (e). ***p < 0.001, NC negative control.

[9] = test system: CNA (calcineurin catalytic subunit); test: In vitro peptide competition assay (GST-tagged peptide / His6-tagged CNA); type: binding; conditions: competitor VIVIT 15-mer; molar ratio GST-peptide to competitor 1:50 to 1:400
[10] = test system: NFAT transcriptional activity; test: NFAT-luc luciferase reporter assay in Jurkat T cells; type: cell-based; conditions: GST-tagged peptides, 40 nM PMA and 1 μM ionomycin 8 h, n = 3
Experimental: as §5, with “In addition, we confirmed the expression level of the transfected proteins by Western blotting.” left out
Jurkat T cells expressing GST-tagged peptides were treated with PMA and ionomycin for activation. […] For dephosphorylation of NFATC2, Jurkat T cells were treated with PMA and ionomycin for 2 h. c Hyper- and hypophosphorylated NFATC2 of b was measured using ImageJ, and the hypo/hyper ratio was calculated (n = 7). d Snapshot images of the activated Jurkat T cells expressing the indicated peptides and tNFATC2 were obtained using confocal microscopy. […] Scale bar, 50 μm e Nuclear-localized tNFATC2 was measured by calculating the colocalization ratio between Hoechst (M1) and EGFP (M2). […]

[11] = test system: calcineurin; conditions: ref [19]; cited from earlier work
Source text: The conventional calcineurin inhibitors FK506 and cyclosporin A have serious side effects. However, they are still widely used in autoimmune diseases and organ transplant patients due to their convenient dosing and effectiveness. Although several alternative calcineurin inhibitors have been developed over the past few decades, none have become clinical treatments thus far. The VIVIT peptide, an optimized peptide derived from the conserved “PxIxIT” sequence of the NFAT family, blocks the interaction between calcineurin and NFAT without affecting calcineurin phosphatase activity. Althoug ...

[12] = test system: allogeneic islet transplantation in mice; conditions: ref [33], cited from earlier work
Source text: To overcome these side effects, researchers have developed alternative inhibitors that specifically perturb the calcineurin-NFAT pathway. […] These peptides compete to interact with CNA, implying that they bind to the same region and have the same mode of action (Fig. 4a). […] For instance, KSR2, another calcineurin substrate that interacts with calcineurin via the “LxVP” motif, is dephosphorylated by calcineurin in response to glucose ...

[13] = test system: p38α; test: In vitro kinase assay, p38α; type: biochemical; conditions: GST-tagged peptide, 1 h, 30 °C, 50 μM ATP
Experimental: as §3, §4

[14] = test system: NFATC2 dephosphorylation; test: NFAT mobility shifting assay in Jurkat T cells; type: cell-based; conditions: HA-mCherry-tagged peptides, PMA and ionomycin 2 h, n = 7
Experimental: Jurkat T cells expressing GST-tagged peptides were treated with PMA and ionomycin for activation. […] For dephosphorylation of NFATC2, Jurkat T cells were treated with PMA and ionomycin for 2 h. c Hyper- and hypophosphorylated NFATC2 of b was measured using ImageJ, and the hypo/hyper ratio was calculated (n = 7). d Snapshot images of the activated Jurkat T cells expressing the indicated peptides and tNFATC2 were obtained using confocal microscopy. The expression and localization of peptides and tNFATC2 are shown as mCherry (red) and EGFP (green), respectively. Nuclei were stained with Hoechst (blue). Scale bar, 50 μm e Nuclear-localized tNFATC2 was measured by calculating the colocalization ratio between Hoechst (M1) and EGFP (M2). (NC and FK506, n = 10; CABIN1-L-1-2 and VIVIT 10-mer, n = 12) Data are representative of independently repeated experiments and presented as the mean ± standard deviation. Statistical differences were determined using a two-tailed Student’s t-test (a, c) or one-way ANOVA (e). ***p < 0.001, NC negative control.

[15] = test system: calcineurin (CNA) phosphatase activity; test: In vitro calcineurin phosphatase activity assay; type: biochemical; conditions: purified GST-tagged peptides with CNA 30 min room temperature
Experimental: as §1, §2

## VIVIT peptide: optimized peptide derived from the conserved PxIxIT sequence of the NFAT family; 10-mer or 15-mer depending on test
[1]
  calcineurin phosphatase activity in cells: did not
[2]
  development of microbiota-dependent colorectal cancer: successfully suppressed the development of microbiota-dependent colorectal cancer
[3]
  NINJ1 and ZP4 expression upon T-cell activation: unaffected
[4]
  phosphorylation by JNK1: not
[5]
  protein stability in cells: the C-terminal glutamate repeats decreased protein stability; also recorded: dramatically less stable with C-terminal glutamate repeats
[6]
  interaction with CNA, effect of 1 μM ionomycin: did not affect the interaction
[7]
  phosphorylation by ERK2: not
[8]
  proportion of nuclear-localized tNFATC2: significantly higher proportion of nuclear-localized tNFATC2 than the cells coexpressing the CABIN1-L-1-2 peptide
[9]
  interference with interaction between GST-tagged CABIN1 peptide and His6-tagged CNA: vice versa
[10]
  NFAT luciferase activity: repressed luciferase activity compared with the negative control
[11]
  IC50 (in words): high IC50 value
[12]; allogeneic islet transplantation
  insulin secretion: without reducing insulin secretion; also recorded: did not decrease insulin secretion
[12]
  allogeneic islet transplantation result vs FK506: better results than FK506 on allogeneic islet transplantation in mice
[13]
  phosphorylation by p38α: not
[14]
  NFATC2 dephosphorylation / band shift: reduced the dephosphorylation of NFATC2, but its inhibitory effect was weaker than that of the CABIN1 peptide
[15]
  calcineurin phosphatase activity in vitro: did not reduce the phosphatase activity of CNA in vitro

“Also recorded” adds a separate entry of the source.
